The values below come from US10654807B2, “Toll-like receptor 8 agonists” (The University Of Kansas, priority 2013, dated 2020).

Chains of the proteins cited; added tags and fusions are not shown. Residues count along the entry.
UniProt Q9NYK1, 27-1049: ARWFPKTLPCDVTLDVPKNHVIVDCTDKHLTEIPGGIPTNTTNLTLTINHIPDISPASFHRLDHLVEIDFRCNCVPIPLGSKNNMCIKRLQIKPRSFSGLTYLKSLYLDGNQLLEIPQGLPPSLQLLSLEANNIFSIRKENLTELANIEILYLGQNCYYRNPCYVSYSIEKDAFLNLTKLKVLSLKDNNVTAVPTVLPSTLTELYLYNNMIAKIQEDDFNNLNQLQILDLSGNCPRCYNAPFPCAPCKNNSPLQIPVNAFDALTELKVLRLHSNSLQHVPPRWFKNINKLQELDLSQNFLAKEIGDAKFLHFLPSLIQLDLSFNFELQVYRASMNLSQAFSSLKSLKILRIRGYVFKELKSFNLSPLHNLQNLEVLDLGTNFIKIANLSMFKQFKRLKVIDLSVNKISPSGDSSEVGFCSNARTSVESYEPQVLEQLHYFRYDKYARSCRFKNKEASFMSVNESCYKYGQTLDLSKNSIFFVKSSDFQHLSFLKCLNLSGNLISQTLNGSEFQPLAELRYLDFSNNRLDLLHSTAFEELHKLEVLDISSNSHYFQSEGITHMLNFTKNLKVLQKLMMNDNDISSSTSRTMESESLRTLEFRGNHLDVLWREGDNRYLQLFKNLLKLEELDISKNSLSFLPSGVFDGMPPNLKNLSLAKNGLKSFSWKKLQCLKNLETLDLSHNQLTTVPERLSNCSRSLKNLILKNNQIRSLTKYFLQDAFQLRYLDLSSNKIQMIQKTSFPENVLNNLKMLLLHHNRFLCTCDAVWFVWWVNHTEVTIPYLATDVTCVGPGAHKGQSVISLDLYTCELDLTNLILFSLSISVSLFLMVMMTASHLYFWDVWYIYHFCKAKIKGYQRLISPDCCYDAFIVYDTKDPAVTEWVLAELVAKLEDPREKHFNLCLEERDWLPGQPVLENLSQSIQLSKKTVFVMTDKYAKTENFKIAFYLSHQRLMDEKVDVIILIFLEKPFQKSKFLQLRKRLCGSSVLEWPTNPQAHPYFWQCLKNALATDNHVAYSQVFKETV

Experiment [1] concerns TLR7/TLR8. The note with it: background statement; cited from earlier work.
The target in experiment [2] is T1, human TLR8 (Homo sapiens, UniProt Q9NR97).
T1 construct: HEK293 cells stably co-transfected with the appropriate hTLR, MD2, and secreted alkaline phosphatase (sAP); expressed in transfected cells; host or cells: HEK293 (HEK-Blue™)
T1 sequence (Q9NR97 27-1041): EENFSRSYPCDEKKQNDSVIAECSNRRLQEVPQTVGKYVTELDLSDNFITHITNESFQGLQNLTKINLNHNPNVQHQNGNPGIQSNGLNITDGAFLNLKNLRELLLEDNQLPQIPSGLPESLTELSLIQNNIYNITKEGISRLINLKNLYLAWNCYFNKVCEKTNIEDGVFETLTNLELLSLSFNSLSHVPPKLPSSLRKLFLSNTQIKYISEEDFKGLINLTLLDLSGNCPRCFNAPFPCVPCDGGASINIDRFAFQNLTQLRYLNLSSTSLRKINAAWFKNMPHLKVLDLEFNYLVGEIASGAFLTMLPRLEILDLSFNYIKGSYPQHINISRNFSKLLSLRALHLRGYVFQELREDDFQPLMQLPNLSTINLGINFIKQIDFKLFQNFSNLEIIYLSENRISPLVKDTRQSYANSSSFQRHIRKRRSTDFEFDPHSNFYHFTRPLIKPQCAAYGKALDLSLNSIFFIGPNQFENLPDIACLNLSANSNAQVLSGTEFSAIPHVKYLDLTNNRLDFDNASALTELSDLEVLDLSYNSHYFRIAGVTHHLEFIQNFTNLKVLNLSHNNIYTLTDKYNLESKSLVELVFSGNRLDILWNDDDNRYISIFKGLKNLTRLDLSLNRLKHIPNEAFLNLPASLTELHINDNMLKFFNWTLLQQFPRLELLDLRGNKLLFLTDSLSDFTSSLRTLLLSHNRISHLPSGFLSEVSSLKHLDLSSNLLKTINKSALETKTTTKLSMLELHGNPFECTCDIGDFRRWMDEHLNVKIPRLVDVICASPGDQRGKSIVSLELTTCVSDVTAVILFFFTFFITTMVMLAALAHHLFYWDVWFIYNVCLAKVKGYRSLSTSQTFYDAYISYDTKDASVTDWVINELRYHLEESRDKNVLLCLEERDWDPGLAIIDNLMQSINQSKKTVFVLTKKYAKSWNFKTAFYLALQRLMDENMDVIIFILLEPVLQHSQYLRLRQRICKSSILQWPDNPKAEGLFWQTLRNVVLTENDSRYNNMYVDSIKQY
Description: human TLR8-specific HEK-Blue reporter gene assay (NF-κB induction). The note with it: TLR8 primary screen. It counts as cell-based.

Experiment [3] addresses human TLR7 (Homo sapiens, UniProt Q9NYK1).

In the case of `CCOCc1nc2c(N)nc3ccccc3c2[nH]1` [Compound 2], the “TLR7/TLR8 agonism profile described” value in experiment [1] is “mixed TLR7/TLR8-agonism”.

For `CCCCc1cc2c(o1)c(N)nc1ccccc12` [Compound A8d, 2-butylfuro[2,3-c]quinolin-4-amine], in experiment [2], the “TLR8 agonistic activity” value is on record as “pure TLR8 agonistic activity”. Also, the TLR7 agonistic activity entry in experiment [3] is “devoid of TLR7-stimulatory activities”.
